Measured values published in ChEMBL document CHEMBL1126162, “A steric and electrostatic comparison of three models for the agonist/antagonist binding site on the adenosine A1 receptor” (J Med Chem, 1992).

Chains of the proteins cited; added tags and fusions are not shown.
UniProt P25099, whole entry: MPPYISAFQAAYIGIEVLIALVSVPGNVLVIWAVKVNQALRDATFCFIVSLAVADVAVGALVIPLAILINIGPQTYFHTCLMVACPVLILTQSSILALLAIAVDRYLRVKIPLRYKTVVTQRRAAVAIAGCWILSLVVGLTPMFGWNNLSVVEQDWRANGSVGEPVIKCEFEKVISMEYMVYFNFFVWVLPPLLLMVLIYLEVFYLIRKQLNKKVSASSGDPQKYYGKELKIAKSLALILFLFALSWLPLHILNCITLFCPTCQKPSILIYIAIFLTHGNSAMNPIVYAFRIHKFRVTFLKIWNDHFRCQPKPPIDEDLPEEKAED

Target: Adenosine receptor A1 (Rattus norvegicus, UniProt P25099)
Assay: Evaluated for binding affinity against Adenosine A1 receptor

Structure (SMILES) | Ki [nM] | IC50 [nM]
CCCn1c(=O)c2nc(C3CC3)[nH]c2n(CCC)c1=O | 41.7 | 
COc1ccc(-c2nc3c([nH]2)c(=O)n(C)c(=O)n3C)cc1 | 0.631 | 
Cc1ccccc1-c1nc2c([nH]1)c(=O)n(C)c(=O)n2C | 3.63 | 

Other lines, results leading:

Ki [nM] | IC50 [nM] | Structure (SMILES)
8.71 |  | COc1cccc(-c2nc3c(=O)n(C)c(=O)n(C)c3[nH]2)c1
 | 126 | OC[C@H]1O[C@@H](n2cnc3c(NCc4ccccc4)ncnc32)[C@H](O)[C@@H]1O [N6-BENZYLADENOSINE]
